Measured values as given in ChEMBL document CHEMBL1145512, “Three classes of glucocerebrosidase inhibitors identified by quantitative high-throughput screening are chaperone leads for Gaucher disease” (Proc Natl Acad Sci U S A, 2007).
Where a chain is given by its changes, count along the chain named. Calls of active or inactive are those of the source. No cut-off for these calls is given here.

Experiments:
[1] = test system: T1, Lysosomal acid glucosylceramidase (Homo sapiens), P04062 [N409S]; experiment: Inhibition of glucocerebrosidase activity in human N370S mutant cells at 40 uM by pulse-chase assay; type: cell-based
T1 sequence (whole entry): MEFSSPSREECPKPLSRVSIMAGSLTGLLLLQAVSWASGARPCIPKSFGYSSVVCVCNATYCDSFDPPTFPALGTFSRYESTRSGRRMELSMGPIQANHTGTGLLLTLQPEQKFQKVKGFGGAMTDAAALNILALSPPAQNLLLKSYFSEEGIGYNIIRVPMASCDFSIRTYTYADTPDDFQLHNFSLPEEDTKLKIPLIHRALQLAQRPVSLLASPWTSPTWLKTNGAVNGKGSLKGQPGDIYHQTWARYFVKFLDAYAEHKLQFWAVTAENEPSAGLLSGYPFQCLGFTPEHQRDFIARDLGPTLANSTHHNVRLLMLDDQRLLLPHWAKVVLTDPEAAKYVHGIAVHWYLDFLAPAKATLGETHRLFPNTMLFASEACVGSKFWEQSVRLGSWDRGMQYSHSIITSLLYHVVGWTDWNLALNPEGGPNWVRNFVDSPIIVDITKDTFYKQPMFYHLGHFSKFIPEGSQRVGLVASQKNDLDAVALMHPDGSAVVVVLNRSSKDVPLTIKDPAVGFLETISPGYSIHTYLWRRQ

[2] = target: T2, Lysosomal acid glucosylceramidase (Homo sapiens) (UniProt P04062); experiment: Inhibition of glucocerebrosidase activity in human wild-type fibroblasts at 40 uM by pulse-chase assay
T2 sequence (whole entry): T1 sequence (whole entry) with S409N

CCc1nnc(NC(=O)c2ccc(NS(=O)(=O)c3ccccc3)cc2)s1
Activity [1]: Active | Activity [2]: Active
